Test results published in patent publication EP4834897A1, “COMPOUNDS WITH TWO AZAHETEROCYCLES SUBSTITUTED ISOINDOLINONE SKELETON AND USES THEREOF” (dated 2026).

The chains behind the UniProt entries cited, without tags or fusion partners.
UniProt P48729, whole entry: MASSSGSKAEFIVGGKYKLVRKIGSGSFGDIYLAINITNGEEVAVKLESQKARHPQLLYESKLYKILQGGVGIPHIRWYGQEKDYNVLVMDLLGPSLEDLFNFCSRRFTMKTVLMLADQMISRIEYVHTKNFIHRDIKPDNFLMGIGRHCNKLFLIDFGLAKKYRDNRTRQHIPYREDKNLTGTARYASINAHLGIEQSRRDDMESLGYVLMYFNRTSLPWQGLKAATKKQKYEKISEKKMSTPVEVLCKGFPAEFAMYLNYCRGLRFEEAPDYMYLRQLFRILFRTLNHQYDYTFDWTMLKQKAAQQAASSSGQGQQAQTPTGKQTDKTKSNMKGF
UniProt Q96SW2, whole entry: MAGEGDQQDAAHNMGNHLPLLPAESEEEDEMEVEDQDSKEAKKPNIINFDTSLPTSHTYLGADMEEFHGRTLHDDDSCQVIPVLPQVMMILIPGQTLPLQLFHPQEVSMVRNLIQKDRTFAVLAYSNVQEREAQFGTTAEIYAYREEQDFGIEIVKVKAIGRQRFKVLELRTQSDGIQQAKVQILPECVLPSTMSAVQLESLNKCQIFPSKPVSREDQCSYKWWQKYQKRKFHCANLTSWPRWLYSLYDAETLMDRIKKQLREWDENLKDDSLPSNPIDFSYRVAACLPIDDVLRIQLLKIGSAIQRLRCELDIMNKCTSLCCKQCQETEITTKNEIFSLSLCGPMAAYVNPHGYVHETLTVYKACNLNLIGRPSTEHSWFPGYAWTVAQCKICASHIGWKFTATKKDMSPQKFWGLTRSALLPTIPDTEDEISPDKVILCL
UniProt P15170, whole entry: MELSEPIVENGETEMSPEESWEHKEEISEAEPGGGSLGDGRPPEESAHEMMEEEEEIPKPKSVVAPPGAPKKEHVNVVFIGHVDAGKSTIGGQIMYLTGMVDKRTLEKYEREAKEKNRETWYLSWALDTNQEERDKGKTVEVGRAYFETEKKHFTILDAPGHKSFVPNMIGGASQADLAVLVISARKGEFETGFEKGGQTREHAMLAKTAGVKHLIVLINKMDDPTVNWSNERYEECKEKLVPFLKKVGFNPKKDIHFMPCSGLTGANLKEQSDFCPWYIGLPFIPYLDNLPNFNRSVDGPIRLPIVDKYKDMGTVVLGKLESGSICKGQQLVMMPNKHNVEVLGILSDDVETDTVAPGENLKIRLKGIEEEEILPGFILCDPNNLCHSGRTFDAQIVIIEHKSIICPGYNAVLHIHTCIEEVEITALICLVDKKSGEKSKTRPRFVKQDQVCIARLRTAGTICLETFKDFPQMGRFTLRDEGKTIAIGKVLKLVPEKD
UniProt Q13422, whole entry: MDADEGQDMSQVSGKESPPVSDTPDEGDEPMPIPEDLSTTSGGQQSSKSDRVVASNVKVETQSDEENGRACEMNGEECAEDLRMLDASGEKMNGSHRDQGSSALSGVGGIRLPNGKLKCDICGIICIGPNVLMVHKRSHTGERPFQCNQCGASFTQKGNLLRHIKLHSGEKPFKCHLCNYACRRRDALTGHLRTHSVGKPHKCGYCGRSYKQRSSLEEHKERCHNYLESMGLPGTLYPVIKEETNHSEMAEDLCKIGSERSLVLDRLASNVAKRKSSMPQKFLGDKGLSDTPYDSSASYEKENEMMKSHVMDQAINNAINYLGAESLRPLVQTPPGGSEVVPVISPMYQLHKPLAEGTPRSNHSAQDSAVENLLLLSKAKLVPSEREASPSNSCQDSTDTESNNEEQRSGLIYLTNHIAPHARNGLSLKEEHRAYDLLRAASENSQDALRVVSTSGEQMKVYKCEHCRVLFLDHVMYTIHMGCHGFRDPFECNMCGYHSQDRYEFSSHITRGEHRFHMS
UniProt Q9UKS7, whole entry: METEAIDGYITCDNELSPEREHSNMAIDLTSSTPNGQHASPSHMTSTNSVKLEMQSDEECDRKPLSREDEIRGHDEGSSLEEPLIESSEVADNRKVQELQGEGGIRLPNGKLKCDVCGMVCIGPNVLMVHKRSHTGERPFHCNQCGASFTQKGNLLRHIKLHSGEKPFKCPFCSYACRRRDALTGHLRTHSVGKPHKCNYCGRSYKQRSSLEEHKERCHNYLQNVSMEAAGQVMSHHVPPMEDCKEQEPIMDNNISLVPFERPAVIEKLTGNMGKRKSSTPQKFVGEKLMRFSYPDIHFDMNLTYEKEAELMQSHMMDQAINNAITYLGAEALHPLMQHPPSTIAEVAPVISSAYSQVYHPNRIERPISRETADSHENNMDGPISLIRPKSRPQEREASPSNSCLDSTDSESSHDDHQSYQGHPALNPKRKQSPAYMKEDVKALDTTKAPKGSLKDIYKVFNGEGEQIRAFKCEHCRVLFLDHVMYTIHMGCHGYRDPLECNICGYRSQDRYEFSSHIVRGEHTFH
UniProt Q9UKT9, whole entry: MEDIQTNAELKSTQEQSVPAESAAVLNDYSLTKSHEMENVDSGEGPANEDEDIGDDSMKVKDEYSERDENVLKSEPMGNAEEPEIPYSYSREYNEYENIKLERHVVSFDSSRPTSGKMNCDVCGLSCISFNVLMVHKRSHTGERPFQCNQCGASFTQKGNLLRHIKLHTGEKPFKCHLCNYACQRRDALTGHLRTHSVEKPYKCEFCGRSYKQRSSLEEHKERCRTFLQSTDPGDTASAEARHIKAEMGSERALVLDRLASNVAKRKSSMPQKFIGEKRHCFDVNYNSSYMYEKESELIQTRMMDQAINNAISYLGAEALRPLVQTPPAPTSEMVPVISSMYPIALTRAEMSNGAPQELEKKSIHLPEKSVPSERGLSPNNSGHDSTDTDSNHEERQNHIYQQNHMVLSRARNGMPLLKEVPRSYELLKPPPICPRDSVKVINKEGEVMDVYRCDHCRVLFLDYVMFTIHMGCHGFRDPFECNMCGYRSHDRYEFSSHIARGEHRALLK
UniProt P30291, whole entry: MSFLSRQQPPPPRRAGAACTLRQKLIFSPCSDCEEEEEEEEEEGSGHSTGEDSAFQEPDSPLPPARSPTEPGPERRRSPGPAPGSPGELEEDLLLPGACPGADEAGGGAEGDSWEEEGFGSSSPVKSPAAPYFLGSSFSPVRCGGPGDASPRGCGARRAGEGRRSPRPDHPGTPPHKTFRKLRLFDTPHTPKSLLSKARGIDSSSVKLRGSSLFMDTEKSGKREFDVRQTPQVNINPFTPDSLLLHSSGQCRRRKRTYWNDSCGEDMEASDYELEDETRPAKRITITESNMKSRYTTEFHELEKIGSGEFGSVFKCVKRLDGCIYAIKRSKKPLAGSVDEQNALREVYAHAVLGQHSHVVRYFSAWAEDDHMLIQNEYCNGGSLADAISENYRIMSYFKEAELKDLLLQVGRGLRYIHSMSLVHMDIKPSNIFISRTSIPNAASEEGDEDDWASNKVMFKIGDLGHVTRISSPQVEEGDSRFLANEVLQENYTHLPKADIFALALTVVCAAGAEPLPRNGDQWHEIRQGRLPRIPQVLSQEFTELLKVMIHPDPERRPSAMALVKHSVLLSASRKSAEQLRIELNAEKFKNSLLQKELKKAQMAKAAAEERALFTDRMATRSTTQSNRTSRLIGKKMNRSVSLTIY
UniProt Q16531, whole entry partner: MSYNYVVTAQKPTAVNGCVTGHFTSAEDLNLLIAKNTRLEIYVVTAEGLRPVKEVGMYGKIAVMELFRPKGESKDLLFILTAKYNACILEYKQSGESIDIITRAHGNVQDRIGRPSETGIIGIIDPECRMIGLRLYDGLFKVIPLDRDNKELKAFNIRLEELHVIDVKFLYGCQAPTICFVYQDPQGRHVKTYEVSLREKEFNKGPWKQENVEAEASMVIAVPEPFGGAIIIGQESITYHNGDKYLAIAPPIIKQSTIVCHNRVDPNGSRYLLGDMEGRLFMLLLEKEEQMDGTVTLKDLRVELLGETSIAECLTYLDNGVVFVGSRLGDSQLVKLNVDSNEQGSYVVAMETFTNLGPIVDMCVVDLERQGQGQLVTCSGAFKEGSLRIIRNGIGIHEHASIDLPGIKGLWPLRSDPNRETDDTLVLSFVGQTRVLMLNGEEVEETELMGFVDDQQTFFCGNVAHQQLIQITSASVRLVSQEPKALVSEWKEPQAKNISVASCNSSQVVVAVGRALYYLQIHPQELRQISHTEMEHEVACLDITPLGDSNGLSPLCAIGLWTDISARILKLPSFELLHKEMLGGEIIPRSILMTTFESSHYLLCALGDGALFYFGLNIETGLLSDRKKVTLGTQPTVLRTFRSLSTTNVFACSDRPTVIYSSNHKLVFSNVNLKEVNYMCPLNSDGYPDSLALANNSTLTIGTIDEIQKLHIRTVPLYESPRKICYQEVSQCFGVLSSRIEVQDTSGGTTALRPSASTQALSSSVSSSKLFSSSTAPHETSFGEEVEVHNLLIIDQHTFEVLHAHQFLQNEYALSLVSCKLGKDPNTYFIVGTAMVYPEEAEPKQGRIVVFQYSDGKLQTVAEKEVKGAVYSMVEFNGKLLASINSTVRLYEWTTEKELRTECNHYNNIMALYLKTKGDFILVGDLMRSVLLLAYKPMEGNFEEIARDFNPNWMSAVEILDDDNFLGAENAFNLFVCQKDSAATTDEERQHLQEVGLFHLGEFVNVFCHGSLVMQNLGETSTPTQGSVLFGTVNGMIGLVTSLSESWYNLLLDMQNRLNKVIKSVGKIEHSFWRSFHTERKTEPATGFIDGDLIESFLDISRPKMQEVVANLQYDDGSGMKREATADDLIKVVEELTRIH

Each molecule was assayed against CK1α (Homo sapiens, UniProt P48729+Q96SW2) (assay: Western blot assay of substrate protein degradation in hPBMCs). Settings: 24 hours treatment, compounds at 50 nM and 500 nM (concentration behind the class not stated).
With `O=C1CCN(N2C(=O)c3ccc(CN4CCC(N5CCN(c6cccc(Cl)c6Cl)CC5)CC4)cc3C2=O)C(=O)N1` the “substrate protein remaining % (CK1a)” value was “B (80%< substrate protein remaining %≤ 100%)”. In the case of `O=C1CCC(N2Cc3ccc(CN4CCC(N5CC=C(c6cccc(Cl)c6Cl)CC5)C(F)(F)C4)cc3C2=O)C(=O)N1` (stereo not drawn), the “substrate protein remaining % (CK1a)” value is reported as “B (80%< substrate protein remaining %≤ 100%)”. In the case of `O=C1CCC(N2C(=O)c3ccc(C(=O)N4CCC(N5CC=C(c6cccc(Cl)c6Cl)CC5)C(F)(F)C4)cc3C2=O)C(=O)N1` (stereo not drawn), the “substrate protein remaining % (CK1a)” value is reported as “B (80%< substrate protein remaining %≤ 100%)”. With `O=C1CCC(N2Cc3cccc(C(=O)N4CCC(N5CCN(c6cccc(Cl)c6Cl)CC5)CC4)c3C2=O)C(=O)N1` (stereo not drawn) the “substrate protein remaining % (CK1a)” value was “A (0% ≤ substrate protein remaining % ≤ 80%)”. In the case of `O=C1CCC(N2C(=O)c3ccc(C(=O)N4CCC(N5CCN(c6cccc(Cl)c6Cl)CC5)CC4)cc3C2=O)C(=O)N1` (stereo not drawn), the “substrate protein remaining % (CK1a)” value is reported as “A (0% ≤ substrate protein remaining % ≤ 80%)”. For `CC1(C)CCC(CN2CCN(C3CCN(C(=O)c4ccc5c(c4)C(=O)N(C4CCC(=O)NC4=O)C5)CC3(F)F)CC2)=C(c2ccc(Cl)cc2)C1` (stereo not drawn), the “substrate protein remaining % (CK1a)” value was “B (80%< substrate protein remaining %≤ 100%)”. `CC1(C)CCC(CN2CCN(C3CCN(Cc4ccc5c(c4)C(=O)N(N4CCC(=O)NC4=O)C5=O)CC3(F)F)CC2)=C(c2ccc(Cl)cc2)C1` (stereo not drawn) was tested, and the “substrate protein remaining % (CK1a)” value was “B (80%< substrate protein remaining %≤ 100%)”. `O=C1CCC(N2C(=O)c3cccc(C(=O)N4CCC(N5CCN(C(c6ccccc6)c6ccccc6)CC5)C(F)(F)C4)c3C2=O)C(=O)N1` (stereo not drawn) was tested, and the “substrate protein remaining % (CK1a)” value was “B (80%< substrate protein remaining %≤ 100%)”.

The molecules below were run against GSPT1 (Homo sapiens, UniProt P15170+Q96SW2) in the same assay as above. Settings: 24 hours treatment, compounds at 50 nM and 500 nM (concentration behind the class not stated).
In the case of `O=C1CCN(N2C(=O)c3ccc(CN4CCC(N5CCN(c6cccc(Cl)c6Cl)CC5)CC4)cc3C2=O)C(=O)N1`, the “substrate protein remaining % (GSPT1)” value is reported as “A (0% ≤ substrate protein remaining % ≤ 80%)”. In the case of `O=C1CCC(N2Cc3ccc(CN4CCC(N5CC=C(c6cccc(Cl)c6Cl)CC5)C(F)(F)C4)cc3C2=O)C(=O)N1` (stereo not drawn), the “substrate protein remaining % (GSPT1)” value is reported as “A (0% ≤ substrate protein remaining % ≤ 80%)”. With `O=C1CCC(N2C(=O)c3ccc(C(=O)N4CCC(N5CC=C(c6cccc(Cl)c6Cl)CC5)C(F)(F)C4)cc3C2=O)C(=O)N1` (stereo not drawn) the “substrate protein remaining % (GSPT1)” value was “A (0% ≤ substrate protein remaining % ≤ 80%)”. For `O=C1CCC(N2Cc3cccc(C(=O)N4CCC(N5CCN(c6cccc(Cl)c6Cl)CC5)CC4)c3C2=O)C(=O)N1` (stereo not drawn), the “substrate protein remaining % (GSPT1)” value was “A (0% ≤ substrate protein remaining % ≤ 80%)”. In the case of `O=C1CCC(N2C(=O)c3ccc(C(=O)N4CCC(N5CCN(c6cccc(Cl)c6Cl)CC5)CC4)cc3C2=O)C(=O)N1` (stereo not drawn), the “substrate protein remaining % (GSPT1)” value is reported as “A (0% ≤ substrate protein remaining % ≤ 80%)”. With `CC1(C)CCC(CN2CCN(C3CCN(C(=O)c4ccc5c(c4)C(=O)N(C4CCC(=O)NC4=O)C5)CC3(F)F)CC2)=C(c2ccc(Cl)cc2)C1` (stereo not drawn) the “substrate protein remaining % (GSPT1)” value was “B (80%< substrate protein remaining %≤ 100%)”. `CC1(C)CCC(CN2CCN(C3CCN(Cc4ccc5c(c4)C(=O)N(N4CCC(=O)NC4=O)C5=O)CC3(F)F)CC2)=C(c2ccc(Cl)cc2)C1` (stereo not drawn) was tested, and the “substrate protein remaining % (GSPT1)” value was “A (0% ≤ substrate protein remaining % ≤ 80%)”. For `O=C1CCC(N2C(=O)c3cccc(C(=O)N4CCC(N5CCN(C(c6ccccc6)c6ccccc6)CC5)C(F)(F)C4)c3C2=O)C(=O)N1` (stereo not drawn), the “substrate protein remaining % (GSPT1)” value was “A (0% ≤ substrate protein remaining % ≤ 80%)”.

Each molecule was assayed against IKZF1 (Homo sapiens, UniProt Q13422+Q96SW2) in the same assay as above. Settings: 24 hours treatment, compounds at 50 nM and 500 nM (concentration behind the class not stated).
In the case of `O=C1CCN(N2C(=O)c3ccc(CN4CCC(N5CCN(c6cccc(Cl)c6Cl)CC5)CC4)cc3C2=O)C(=O)N1`, the “substrate protein remaining % (IKZF 1)” value is reported as “B (80%< substrate protein remaining %≤ 100%)”. For `O=C1CCC(N2Cc3ccc(CN4CCC(N5CC=C(c6cccc(Cl)c6Cl)CC5)C(F)(F)C4)cc3C2=O)C(=O)N1` (stereo not drawn), the “substrate protein remaining % (IKZF 1)” value was “B (80%< substrate protein remaining %≤ 100%)”. With `O=C1CCC(N2C(=O)c3ccc(C(=O)N4CCC(N5CC=C(c6cccc(Cl)c6Cl)CC5)C(F)(F)C4)cc3C2=O)C(=O)N1` (stereo not drawn) the “substrate protein remaining % (IKZF 1)” value was “B (80%< substrate protein remaining %≤ 100%)”. In the case of `O=C1CCC(N2Cc3cccc(C(=O)N4CCC(N5CCN(c6cccc(Cl)c6Cl)CC5)CC4)c3C2=O)C(=O)N1` (stereo not drawn), the “substrate protein remaining % (IKZF 1)” value is reported as “B (80%< substrate protein remaining %≤ 100%)”. For `O=C1CCC(N2C(=O)c3ccc(C(=O)N4CCC(N5CCN(c6cccc(Cl)c6Cl)CC5)CC4)cc3C2=O)C(=O)N1` (stereo not drawn), the “substrate protein remaining % (IKZF 1)” value was “B (80%< substrate protein remaining %≤ 100%)”. For `CC1(C)CCC(CN2CCN(C3CCN(C(=O)c4ccc5c(c4)C(=O)N(C4CCC(=O)NC4=O)C5)CC3(F)F)CC2)=C(c2ccc(Cl)cc2)C1` (stereo not drawn), the “substrate protein remaining % (IKZF 1)” value was “B (80%< substrate protein remaining %≤ 100%)”. `CC1(C)CCC(CN2CCN(C3CCN(Cc4ccc5c(c4)C(=O)N(N4CCC(=O)NC4=O)C5=O)CC3(F)F)CC2)=C(c2ccc(Cl)cc2)C1` (stereo not drawn) was tested, and the “substrate protein remaining % (IKZF 1)” value was “B (80%< substrate protein remaining %≤ 100%)”. With `O=C1CCC(N2C(=O)c3cccc(C(=O)N4CCC(N5CCN(C(c6ccccc6)c6ccccc6)CC5)C(F)(F)C4)c3C2=O)C(=O)N1` (stereo not drawn) the “substrate protein remaining % (IKZF 1)” value was “B (80%< substrate protein remaining %≤ 100%)”.

The molecules below were run against IKZF2 (Homo sapiens, UniProt Q96SW2+Q9UKS7) in the same assay as above. Settings: 24 hours treatment, compounds at 50 nM and 500 nM (concentration behind the class not stated).
With `O=C1CCN(N2C(=O)c3ccc(CN4CCC(N5CCN(c6cccc(Cl)c6Cl)CC5)CC4)cc3C2=O)C(=O)N1` the “substrate protein remaining % (IKZF2)” value was “B (80%< substrate protein remaining %≤ 100%)”. In the case of `O=C1CCC(N2Cc3ccc(CN4CCC(N5CC=C(c6cccc(Cl)c6Cl)CC5)C(F)(F)C4)cc3C2=O)C(=O)N1` (stereo not drawn), the “substrate protein remaining % (IKZF2)” value is reported as “B (80%< substrate protein remaining %≤ 100%)”. With `O=C1CCC(N2C(=O)c3ccc(C(=O)N4CCC(N5CC=C(c6cccc(Cl)c6Cl)CC5)C(F)(F)C4)cc3C2=O)C(=O)N1` (stereo not drawn) the “substrate protein remaining % (IKZF2)” value was “B (80%< substrate protein remaining %≤ 100%)”. In the case of `O=C1CCC(N2Cc3cccc(C(=O)N4CCC(N5CCN(c6cccc(Cl)c6Cl)CC5)CC4)c3C2=O)C(=O)N1` (stereo not drawn), the “substrate protein remaining % (IKZF2)” value is reported as “B (80%< substrate protein remaining %≤ 100%)”. For `O=C1CCC(N2C(=O)c3ccc(C(=O)N4CCC(N5CCN(c6cccc(Cl)c6Cl)CC5)CC4)cc3C2=O)C(=O)N1` (stereo not drawn), the “substrate protein remaining % (IKZF2)” value was “B (80%< substrate protein remaining %≤ 100%)”. For `CC1(C)CCC(CN2CCN(C3CCN(C(=O)c4ccc5c(c4)C(=O)N(C4CCC(=O)NC4=O)C5)CC3(F)F)CC2)=C(c2ccc(Cl)cc2)C1` (stereo not drawn), the “substrate protein remaining % (IKZF2)” value was “B (80%< substrate protein remaining %≤ 100%)”. For `CC1(C)CCC(CN2CCN(C3CCN(Cc4ccc5c(c4)C(=O)N(N4CCC(=O)NC4=O)C5=O)CC3(F)F)CC2)=C(c2ccc(Cl)cc2)C1` (stereo not drawn), the “substrate protein remaining % (IKZF2)” value was “B (80%< substrate protein remaining %≤ 100%)”. `O=C1CCC(N2C(=O)c3cccc(C(=O)N4CCC(N5CCN(C(c6ccccc6)c6ccccc6)CC5)C(F)(F)C4)c3C2=O)C(=O)N1` (stereo not drawn) was tested, and the “substrate protein remaining % (IKZF2)” value was “A (0% ≤ substrate protein remaining % ≤ 80%)”.

These molecules were tested against IKZF3 (Homo sapiens, UniProt Q96SW2+Q9UKT9) in the same assay as above. Settings: 24 hours treatment, compounds at 50 nM and 500 nM (concentration behind the class not stated).
For `O=C1CCN(N2C(=O)c3ccc(CN4CCC(N5CCN(c6cccc(Cl)c6Cl)CC5)CC4)cc3C2=O)C(=O)N1`, the “substrate protein remaining % (IKZF3)” value was “B (80%< substrate protein remaining %≤ 100%)”. In the case of `O=C1CCC(N2Cc3ccc(CN4CCC(N5CC=C(c6cccc(Cl)c6Cl)CC5)C(F)(F)C4)cc3C2=O)C(=O)N1` (stereo not drawn), the “substrate protein remaining % (IKZF3)” value is reported as “B (80%< substrate protein remaining %≤ 100%)”. With `O=C1CCC(N2C(=O)c3ccc(C(=O)N4CCC(N5CC=C(c6cccc(Cl)c6Cl)CC5)C(F)(F)C4)cc3C2=O)C(=O)N1` (stereo not drawn) the “substrate protein remaining % (IKZF3)” value was “B (80%< substrate protein remaining %≤ 100%)”. With `O=C1CCC(N2Cc3cccc(C(=O)N4CCC(N5CCN(c6cccc(Cl)c6Cl)CC5)CC4)c3C2=O)C(=O)N1` (stereo not drawn) the “substrate protein remaining % (IKZF3)” value was “B (80%< substrate protein remaining %≤ 100%)”. With `O=C1CCC(N2C(=O)c3ccc(C(=O)N4CCC(N5CCN(c6cccc(Cl)c6Cl)CC5)CC4)cc3C2=O)C(=O)N1` (stereo not drawn) the “substrate protein remaining % (IKZF3)” value was “B (80%< substrate protein remaining %≤ 100%)”. `CC1(C)CCC(CN2CCN(C3CCN(C(=O)c4ccc5c(c4)C(=O)N(C4CCC(=O)NC4=O)C5)CC3(F)F)CC2)=C(c2ccc(Cl)cc2)C1` (stereo not drawn) was tested, and the “substrate protein remaining % (IKZF3)” value was “A (0% ≤ substrate protein remaining % ≤ 80%)”. In the case of `CC1(C)CCC(CN2CCN(C3CCN(Cc4ccc5c(c4)C(=O)N(N4CCC(=O)NC4=O)C5=O)CC3(F)F)CC2)=C(c2ccc(Cl)cc2)C1` (stereo not drawn), the “substrate protein remaining % (IKZF3)” value is reported as “A (0% ≤ substrate protein remaining % ≤ 80%)”. `O=C1CCC(N2C(=O)c3cccc(C(=O)N4CCC(N5CCN(C(c6ccccc6)c6ccccc6)CC5)C(F)(F)C4)c3C2=O)C(=O)N1` (stereo not drawn) was tested, and the “substrate protein remaining % (IKZF3)” value was “A (0% ≤ substrate protein remaining % ≤ 80%)”.

The molecules below were run against WEE1 (Homo sapiens, UniProt P30291+Q96SW2) in the same assay as above. Settings: 24 hours treatment, compounds at 50 nM and 500 nM (concentration behind the class not stated).
In the case of `O=C1CCN(N2C(=O)c3ccc(CN4CCC(N5CCN(c6cccc(Cl)c6Cl)CC5)CC4)cc3C2=O)C(=O)N1`, the “substrate protein remaining % (WEE1)” value is reported as “A (0% ≤ substrate protein remaining % ≤ 80%)”. In the case of `O=C1CCC(N2Cc3ccc(CN4CCC(N5CC=C(c6cccc(Cl)c6Cl)CC5)C(F)(F)C4)cc3C2=O)C(=O)N1` (stereo not drawn), the “substrate protein remaining % (WEE1)” value is reported as “B (80%< substrate protein remaining %≤ 100%)”. With `O=C1CCC(N2C(=O)c3ccc(C(=O)N4CCC(N5CC=C(c6cccc(Cl)c6Cl)CC5)C(F)(F)C4)cc3C2=O)C(=O)N1` (stereo not drawn) the “substrate protein remaining % (WEE1)” value was “A (0% ≤ substrate protein remaining % ≤ 80%)”. With `O=C1CCC(N2Cc3cccc(C(=O)N4CCC(N5CCN(c6cccc(Cl)c6Cl)CC5)CC4)c3C2=O)C(=O)N1` (stereo not drawn) the “substrate protein remaining % (WEE1)” value was “B (80%< substrate protein remaining %≤ 100%)”. In the case of `O=C1CCC(N2C(=O)c3ccc(C(=O)N4CCC(N5CCN(c6cccc(Cl)c6Cl)CC5)CC4)cc3C2=O)C(=O)N1` (stereo not drawn), the “substrate protein remaining % (WEE1)” value is reported as “B (80%< substrate protein remaining %≤ 100%)”. With `CC1(C)CCC(CN2CCN(C3CCN(C(=O)c4ccc5c(c4)C(=O)N(C4CCC(=O)NC4=O)C5)CC3(F)F)CC2)=C(c2ccc(Cl)cc2)C1` (stereo not drawn) the “substrate protein remaining % (WEE1)” value was “B (80%< substrate protein remaining %≤ 100%)”. With `CC1(C)CCC(CN2CCN(C3CCN(Cc4ccc5c(c4)C(=O)N(N4CCC(=O)NC4=O)C5=O)CC3(F)F)CC2)=C(c2ccc(Cl)cc2)C1` (stereo not drawn) the “substrate protein remaining % (WEE1)” value was “B (80%< substrate protein remaining %≤ 100%)”. `O=C1CCC(N2C(=O)c3cccc(C(=O)N4CCC(N5CCN(C(c6ccccc6)c6ccccc6)CC5)C(F)(F)C4)c3C2=O)C(=O)N1` (stereo not drawn) was tested, and the “substrate protein remaining % (WEE1)” value was “B (80%< substrate protein remaining %≤ 100%)”.
